System: opioid receptors in P3 from bovine caudate nucleus homogenate
Assay: stereospecific binding by competition with 3H-etorphine, P3 from bovine caudate nucleus homogenate
Conditions: read-out: Kd in binding to P3 from bovine caudate nucleus homogentate; by competition with 3H-etorphine binding to P3, 25°

`Oc1ccc2c3c1O[C@H]1[C@@H](O)C=C[C@H]4[C@@H](C2)NCC[C@@]341` [normorphine] showed a Kd of 90 nM.
